Assay results published in patent US20150125452A1, “COMBINATION TREATMENTS COMPRISING C-MET ANTAGONISTS AND B-RAF ANTAGONISTS” (GENENTECH, INC., priority 2011, published 2015).

System: H3122 EML4-ALK translocated NSCLC cancer cell line
Assay: Cell viability assay with TAE684 or crizotinib and HGF
Assay type: cell-based, Human
Conditions: crizotinib, 50 ng/mL HGF, 72 h
Description: Error bars represent mean+/−s.e.m.
Cell viability was assessed using the nucleic acid stain Syto 60 (Invitrogen). Cells (3000-5000 per well) were seeded into 96 well plates and allowed to adhere overnight. The next day, cells were treated with (or without) 50 ng/mL RTK ligand and concomitantly exposed to an increasing concentration range of the relevant kinase inhibitor. […] Cell viability was calculated by dividing the fluorescence obtained from the drug-treated cells by the fluorescence obtained from the control (no drug) treated cells.

C[C@@H](Oc1cc(-c2cnn(C3CCNCC3)c2)cnc1N)c1c(Cl)ccc(F)c1Cl [crizotinib, 3-[(1R)-1-(2,6-dichloro-3-fluorophenyl)ethoxy]-5-(1-piperidin-4-ylpyrazol-4-yl)pyridin-2-amine]
suppression of cell survival in presence of HGF: efficiently suppressed even in the presence of HGF
